Assay results: publication PMC8958505, “Discovery of Potential Neuroprotective Agents against Paclitaxel-Induced Peripheral Neuropathy” (Journal of Medicinal Chemistry, 2022)
Counter-ions that a name gives are not always drawn. Like-named read-outs stand apart in the source and are kept apart here.

Tests used:
[1] = tested on: ICR mice; experiment: Acute single-dose toxicity study; assay type: in vivo; conditions: for survival / survival rate: saline
Procedure: An acute single-dose toxicity study was conducted in male ICR mice. 7-week-old ICR male mice were intravenous bolus administered with CN016 dissolved in 0.9% sodium chloride solution by using dose escalation procedure to approach the toxicity of CN016. The treatment groups included 50, 100, 300, and 500 mg/kg dose levels and three to six mice for each group. The injection volume was calculated based on the individual body weight. […] Animal body weight was measured once daily during the 14 day observation period of the study. All animals were euthanized with 100% CO2 at the end of the study.

[2] = tested on: mice; experiment: Hemodynamic monitoring (systolic pressure, heart rate) and body weight; assay type: in vivo, mouse
Procedure: The baseline of every neurological behavior test was measured in 6-week-old C57BL/6J female mice prior to treatment. […] Three behavioral tests were performed on the same groups of animals once per week and no more than two behavioral tests on the same day. The first behavioral experiment was performed on the next day after the last course of treatment. Mechanical hyperalgesia was evaluated by using von Frey filament (#2390, IITC Inc., USA), thermal sensitivity was determined by the tail immersion assay (water temperature: 48–49 °C), and motor coordination was assessed by rotarod (#7750, Ugo Basile Biological Research Apparatus, Italy). After the first drug implantation, the body weight was recorded every 6 days throughout the entire experiment.
Noninvasive automatized tail-cuff system (Visitech Systems, Apex, NC, USA) was used to measure the systolic pressure and the heart rate of conscious mice. All mice were placed in a constant temperature platform at least three times to adapt the system prior to hemodynamic measurement. The root of the tail was mounted on the occlusion and sensor cuff after the mouse was placed in a constant temperature platform. Each mouse was measured for at least 15 repetitions to obtain the mean of systolic pressure and heart rate. The hemodynamic change of each mouse was measured at five different time points.

[3] = molecular target: T1, CYP 3A4 (Homo sapiens, UniProt P08684); experiment: Cytochrome P450 testing, CYP 3A4; assay type: in vitro ADME; conditions: testosterone 6-hydroxylation; read-out: Concentration of inhibition (IC50), CYP 3A4
T1 construct: host or cells: baculovirus-infected insect cells (supersomes)
Text: Cytochrome P450 testing of CN016
The effects of CN016 on the activity of six specific human liver cytochrome P450 isozymes (CYP 1A2, 2C9, 2C19, 2D6, 2E1, 3A4) expressed in baculovirus-infected insect cell supersomes were studied. The reactions used to measure the activity of these enzymes were phenacetin O-deethylation (1A2), diclofenac 4-hydroxylation (2C9), mephenytoin 4-hydroxylation (2C19), dextromethorphan O-demethylation (2D6), chlorzoxazone 6-hydroxylation (2E1) and testosterone 6-hydroxylation (3A4).
Furafylline, sulfaphenazole, tranylcypromine, quinidine, diethyldithiocarbamate and azamulin were used as reference inhibitors of these enzymes. Incubation mixtures containing no CN016 or reference inhibitors were used as controls. The tested result […]
Table S4. Result of Cytochrome P450 testing of CN016

[4] = molecular target: Adenosine A2A (Homo sapiens, UniProt P29274); experiment: LeadProfilingScreen: Adenosine A2A; assay type: binding
[5] = molecular target: Adenosine A3 (Homo sapiens, UniProt P0DMS8); experiment: LeadProfilingScreen: Adenosine A3; assay type: binding
[6] = molecular target: Adrenergic α1D (Homo sapiens, UniProt P25100); experiment: LeadProfilingScreen: Adrenergic α1D; assay type: binding
[7] = molecular target: Androgen (Testosterone) (Homo sapiens, UniProt P10275); experiment: LeadProfilingScreen: Androgen (Testosterone); assay type: binding
[8] = molecular target: Calcium Channel N-Type (Rattus norvegicus, UniProt Q02294); experiment: LeadProfilingScreen: Calcium Channel N-Type; assay type: binding
[9] = molecular target: Dopamine D1 (Homo sapiens, UniProt P21728); experiment: LeadProfilingScreen: Dopamine D1; assay type: binding
[10] = molecular target: Dopamine D2S (Homo sapiens, UniProt P14416); experiment: LeadProfilingScreen: Dopamine D2S; assay type: binding
[11] = molecular target: Dopamine D3 (Homo sapiens, UniProt P35462); experiment: LeadProfilingScreen: Dopamine D3; assay type: binding
[12] = tested on: GABAA, Muscimol, Central; experiment: LeadProfilingScreen: GABAA, Muscimol, Central; assay type: binding, rat; conditions: 10 μM
[13] = tested on: Glutamate, Kainate; experiment: LeadProfilingScreen: Glutamate, Kainate; assay type: binding, rat; conditions: 10 μM
[14] = tested on: Glutamate, NMDA, Agonism; experiment: LeadProfilingScreen: Glutamate, NMDA, Agonism; assay type: binding, rat; conditions: 10 μM
[15] = molecular target: Histamine H1 (Homo sapiens, UniProt P35367); experiment: LeadProfilingScreen: Histamine H1; assay type: binding
[16] = molecular target: Leukotriene, Cysteinyl CysLT1 (Homo sapiens, UniProt Q9Y271); experiment: LeadProfilingScreen: Leukotriene, Cysteinyl CysLT1; assay type: binding
[17] = molecular target: Neuropeptide Y Y1 (Homo sapiens, UniProt P25929); experiment: LeadProfilingScreen: Neuropeptide Y Y1; assay type: binding
[18] = molecular target: Nicotinic Acetylcholine α1, Bungarotoxin (Homo sapiens, UniProt P02708+P07510+Q07001); assay type: binding; conditions: 10 μM
[19] = molecular target: Prostanoid EP4 (Homo sapiens, UniProt P35408); experiment: LeadProfilingScreen: Prostanoid EP4; assay type: binding
[20] = molecular target: Serotonin (5-Hydroxytryptamine) 5-HT1A (Homo sapiens, UniProt P08908); experiment: LeadProfilingScreen: Serotonin 5-HT1A; assay type: binding
[21] = molecular target: Sigma σ1 (Homo sapiens, UniProt Q99720); experiment: LeadProfilingScreen: Sigma σ1; assay type: binding
[22] = molecular target: hERG (Homo sapiens, UniProt Q12809); experiment: hERG patch-clamp assay (hERG-CHO, automated patch-clamp); assay type: cell-based; design: host or cells: CHO (hERG-CHO)
Procedure: CN016 were tested in the hERG (hERG-CHO, automated patch-clamp) assay and determined at Eurofins Panlabs (Missouri, USA). The experiment was accepted in accordance with Eurofins validation Standard Operating Procedure. The tested result […]
Table S3. Result of hERG patch-clamp assay of CN016

[23] = CN016 (5, 10 or 20 mg/kg) and paclitaxel (4.5 mg/kg)

O=P(O)(O)CCN1CCC(Nc2cc(N3CCOCC3)nc(NCc3cn(CCCO)nn3)n2)CC1 [CN016, {2-[4-(2-{[1-(3-Hydroxy-propyl)-1H-[1,2,3]triazol-4-ylmethyl]-amino}-6-morpholin-4-yl-pyrimidin-4-ylamino)-piperidin-1-yl]-ethyl}-phosphonic Acid Hydrobromide Salt]
survival ([1]; 50 mg/kg IV): 3/3
survival rate ([1]; 50 mg/kg IV): 100%
survival ([1]; 100 mg/kg IV): 6/6
survival rate ([1]; 100 mg/kg IV): 100%
survival ([1]; 300 mg/kg IV): 3/3
survival rate ([1]; 300 mg/kg IV): 100%
survival ([1]; 500 mg/kg IV): 3/3
survival rate ([1]; 500 mg/kg IV): 100%
maximum tolerance dose (MTD) ([1]; intravenous, ICR mice): > 500 mg/kg
harmful effects, including heart rhythm, systolic blood pressure, and weight change ([2]; 20 mg/kg): no harmful effects
heart rhythm variability [2, 23]: did not cause
systolic blood pressure fluctuations [2, 23]: did not cause
weight change [2, 23]: did not cause
IC50 [3]: > 100 µM
inhibition at 10 µM [4]: 5%
inhibition at 10 µM [5]: 0%
inhibition at 10 µM [6]: -6%
inhibition at 10 µM [7]: 6%
inhibition at 10 µM [8]: 1%
inhibition at 10 µM [9]: -2%
inhibition at 10 µM [10]: 3%
inhibition at 10 µM [11]: -3%
Inhibition (%), GABAA, Muscimol, Central [12]: 5%
Inhibition (%), Glutamate, Kainate [13]: 0%
Inhibition (%), Glutamate, NMDA, Agonism [14]: -3%
inhibition at 10 µM [15]: 19%
inhibition at 10 µM [16]: -8%
inhibition at 10 µM [17]: -4%
Inhibition (%), Nicotinic Acetylcholine α1, Bungarotoxin [18]: 7%
Inhibition (%), Nicotinic Acetylcholine α1, Bungarotoxin ([18]; listed as CN168, 10 µM): -6%
inhibition at 10 µM [19]: 4%
inhibition at 10 µM [20]: 2%
inhibition at 10 µM [21]: 0%
inhibition at 1 µM ([22]; human, CHO cells that express hERG (hERG-CHO), 1 μM): 6%
inhibition at 10 µM ([22]; human, CHO cells that express hERG (hERG-CHO), 10 μM): 19.1%
inhibition at 100 µM ([22]; human, CHO cells that express hERG (hERG-CHO), 100 μM): 32.9%
hERG liability ([22]; up to 100 μM, patch-clamp): not observed
